Values quoted from earlier work, collected in US6409990B1, “Macromolecular carrier for drug and diagnostic agent delivery” (The Regents of the University of California, priority 1999, dated 2002).

Conditions: in vivo

## TC-HSA: labeled macromolecule, technetium-labeled human serum albumin
  clearance from the injection site: fastest clearance
  half time of clearance from the injection site: 2.8 h
